Earlier results as cited in PMC5082792 (PLoS ONE, 2016).

Design: method as in PMID 21383098
Conditions: co-administration of ETR, 14 healthy adults; cited from earlier work

maraviroc
decrease of maraviroc exposure (AUC0–12h): 53%
